{"source": "ChEMBL document CHEMBL1126282", "about": "“Synthesis and conformational properties of the lanthionine-bridged opioid peptide [D-AlaL2,AlaL5]enkephalin as determined by NMR and computer simulations” (J Med Chem, 1992)", "organism": "Cavia porcellus", "assay": "Potency to inhibit electrically induced contraction of guinea pig ileum(GPI) relative to [Leu5]-enkephalin.", "assay_type": "functional"}
{"compound": "CN1CC[C@]23c4c5ccc(O)c4O[C@H]2[C@@H](O)C=C[C@H]3[C@H]1C5", "note": "[MORPHINE]", "values": [{"measurement": "Relative potency", "value": 4.2}]}
